These results are taken from US9090618B2, “Substituted benzimidazole-type piperidine compounds and uses thereof” (dated 2015).

The structures appear in SMILES notation.

In general, EC50 refers to the concentration that produces a half-maximal response. A lower EC50 goes with higher potency in that assay. In general, Ki refers to a dissociation constant, usually derived from enzyme kinetics or from competition with a known ligand.

The first assay concerns the target kappa opioid receptor (Homo sapiens (Human), UniProt P41145). In words: In vitro kappa-opioid receptor [35S]GTPγS functional assay.
Conditions: not given
`CS(=O)(=O)NCCN1CC[C@@H](Cc2nc3ccccc3n2[C@H]2C[C@H]3CCC[C@@H](C2)N3[C@@H]2C[C@@H]3CCCC[C@@H](C3)C2)C1` gave an EC50 greater than 20 µM.
On the same count and under the same terms, the value for `O=C(O)CNc1nc2ccccc2n1C1C[C@H]2CCC[C@@H](C1)N2C1CCCCCCCCC1` (some centres unmarked) was greater than 20 µM; that for `NC(=O)CN1CCC[C@H]1c1nc2ccccc2n1[C@H]1C[C@H]2CCC[C@@H](C1)N2[C@@H]1C[C@@H]2CCCC[C@@H](C2)C1` was greater than 20 µM.
In turn, `OCc1nc2ccccc2n1C1C[C@H]2CCC[C@@H](C1)N2[C@H]1C[C@@H]2CCC[C@@H](C2)C1` (some centres unmarked) showed a concentration for a half-maximal effect (EC50) greater than 20 µM.
On the same count and under the same terms, the value for `O=C(O)CCN1CCC[C@H]1Cc1nc2ccccc2n1[C@H]1C[C@H]2CCC[C@@H](C1)N2[C@@H]1C[C@@H]2CCCC[C@@H](C2)C1` was greater than 20 µM; that for `O=C(O)CN1CCCC[C@@H]1c1nc2ccccc2n1[C@H]1C[C@H]2CCC[C@@H](C1)N2[C@@H]1C[C@@H]2CCCC[C@@H](C2)C1` was 1.53 µM.
The same measure, in the same setting: for `O=C(O)CN1CCCC[C@H]1Cc1nc2ccccc2n1[C@H]1C[C@H]2CCC[C@@H](C1)N2[C@@H]1C[C@@H]2CCCC[C@@H](C2)C1` the value was greater than 20 µM.
Same read-out and setting: for `CS(=O)(=O)NCCN1CCC[C@H]1Cc1nc2ccccc2n1[C@H]1C[C@H]2CCC[C@@H](C1)N2[C@@H]1C[C@@H]2CCCC[C@@H](C2)C1` the value was greater than 20 µM.
Compound `c1ccc2c(c1)nc(C[C@@H]1COCCN1)n2[C@H]1C[C@H]2CCC[C@@H](C1)N2[C@@H]1C[C@@H]2CCCC[C@@H](C2)C1` had an EC50 greater than 20 µM.
On the same count and under the same terms, for `CONC(=N)/N=c1\[nH]c2ccccc2n1C1CCN(C2CCCCCCC2)CC1` the value was 1.01 µM; for `O=C(O)CN1CCC[C@@H]1c1nc2ccccc2n1[C@H]1C[C@H]2CCC[C@@H](C1)N2[C@@H]1C[C@@H]2CCCC[C@@H](C2)C1`, greater than 20 µM.
In the case of `O=C(O)CN1CCCC[C@H]1c1nc2ccccc2n1[C@H]1C[C@H]2CCC[C@@H](C1)N2[C@@H]1C[C@@H]2CCCC[C@@H](C2)C1`, the 50% effective concentration (EC50) is greater than 20 µM.

The target in another assay is recombinant delta opioid receptor expressed in CHO-K1 cells (Homo sapiens (Human), UniProt P41143). In words: In vitro delta-opioid receptor binding assay ([3H]-Naltrindole displacement).
Conditions: not given
As for `CS(=O)(=O)NCCN1CC[C@@H](Cc2nc3ccccc3n2[C@H]2C[C@H]3CCC[C@@H](C2)N3[C@@H]2C[C@@H]3CCCC[C@@H](C3)C2)C1`, the Ki is greater than 20 µM.
Still for that read-out and setting: for `NC(=O)CN1CCC[C@H]1c1nc2ccccc2n1[C@H]1C[C@H]2CCC[C@@H](C1)N2[C@@H]1C[C@@H]2CCCC[C@@H](C2)C1` the value was greater than 20 µM.
`O=C(O)CCN1CCC[C@H]1Cc1nc2ccccc2n1[C@H]1C[C@H]2CCC[C@@H](C1)N2[C@@H]1C[C@@H]2CCCC[C@@H](C2)C1`: the Ki is greater than 20 µM.
Regarding `O=C(O)CN1CCCC[C@@H]1c1nc2ccccc2n1[C@H]1C[C@H]2CCC[C@@H](C1)N2[C@@H]1C[C@@H]2CCCC[C@@H](C2)C1`, the Ki was greater than 20 µM.
The same measure, in the same setting: for `O=C(O)CN1CCCC[C@H]1Cc1nc2ccccc2n1[C@H]1C[C@H]2CCC[C@@H](C1)N2[C@@H]1C[C@@H]2CCCC[C@@H](C2)C1` the value was greater than 20 µM; for `CS(=O)(=O)NCCN1CCC[C@H]1Cc1nc2ccccc2n1[C@H]1C[C@H]2CCC[C@@H](C1)N2[C@@H]1C[C@@H]2CCCC[C@@H](C2)C1`, greater than 20 µM.
For `c1ccc2c(c1)nc(C[C@@H]1COCCN1)n2[C@H]1C[C@H]2CCC[C@@H](C1)N2[C@@H]1C[C@@H]2CCCC[C@@H](C2)C1`, the Ki was greater than 20 µM.

For the next assay, the target named is human opioid receptor-like (ORL-1) (Homo sapiens (Human), UniProt P41146). As to the kind of experiment: In vitro ORL-1 receptor [35S]GTPγS functional assay.
Conditions: not given
In general terms: GTPγS resists hydrolysis and so accumulates on activated G proteins.
`CS(=O)(=O)NCCN1CC[C@@H](Cc2nc3ccccc3n2[C@H]2C[C@H]3CCC[C@@H](C2)N3[C@@H]2C[C@@H]3CCCC[C@@H](C3)C2)C1` came in with an EC50 of 8.9 nM.
Still for that read-out and setting: for `NC(=O)CN1CCC[C@H](c2nc3ccccc3n2[C@H]2C[C@H]3CCC[C@@H](C2)N3[C@@H]2C[C@@H]3CCCC[C@@H](C3)C2)C1` the value was 6.2 nM; for `O=C(O)CN1CC(c2nc3ccccc3n2[C@H]2C[C@H]3CCC[C@@H](C2)N3[C@@H]2C[C@@H]3CCCC[C@@H](C3)C2)C1`, 37.7 nM.
The same measure, in the same setting: the value for `O=C(O)CCN1CC(c2nc3ccccc3n2[C@H]2C[C@H]3CCC[C@@H](C2)N3[C@@H]2C[C@@H]3CCCC[C@@H](C3)C2)C1` was 38.9 nM; that for `O=C(O)CNc1nc2ccccc2n1C1C[C@H]2CCC[C@@H](C1)N2C1CCCCCCCCC1` (some centres unmarked) was 220 nM.
`NC(=O)CN1CCC[C@H]1c1nc2ccccc2n1[C@H]1C[C@H]2CCC[C@@H](C1)N2[C@@H]1C[C@@H]2CCCC[C@@H](C2)C1` displayed a half-maximal effective concentration (EC50) of 38 nM.
Still for that read-out and setting: the value for `OCc1nc2ccccc2n1C1C[C@H]2CCC[C@@H](C1)N2[C@H]1C[C@@H]2CCC[C@@H](C2)C1` (some centres unmarked) was 17.5 nM; that for `c1ccc2c(c1)nc(-c1ccno1)n2[C@H]1C[C@H]2CCC[C@@H](C1)N2[C@H]1C[C@@H]2CCC[C@@H](C2)C1` was 16.6 nM.
Same read-out and setting: the value for `O=C(O)CCN1CCC[C@H]1Cc1nc2ccccc2n1[C@H]1C[C@H]2CCC[C@@H](C1)N2[C@@H]1C[C@@H]2CCCC[C@@H](C2)C1` was 104 nM; that for `O=C(O)CN1CC[C@H](c2nc3ccccc3n2[C@H]2C[C@H]3CCC[C@@H](C2)N3[C@@H]2C[C@@H]3CCCC[C@@H](C3)C2)C1` was 65 nM.
Same read-out and setting: for `O=C(O)CN1CCCC[C@@H]1c1nc2ccccc2n1[C@H]1C[C@H]2CCC[C@@H](C1)N2[C@@H]1C[C@@H]2CCCC[C@@H](C2)C1` the value was 104 nM.
`CCN(CC)C(=O)CN1CCC[C@@H](Cc2nc3ccccc3n2[C@H]2C[C@H]3CCC[C@@H](C2)N3[C@@H]2C[C@@H]3CCCC[C@@H](C3)C2)C1` returned an EC50 of 40 nM.
Same read-out and setting: for `O=C(O)CN1CCCC[C@H]1Cc1nc2ccccc2n1[C@H]1C[C@H]2CCC[C@@H](C1)N2[C@@H]1C[C@@H]2CCCC[C@@H](C2)C1` the value was 101 nM; for `CS(=O)(=O)NCCN1CCC[C@H]1Cc1nc2ccccc2n1[C@H]1C[C@H]2CCC[C@@H](C1)N2[C@@H]1C[C@@H]2CCCC[C@@H](C2)C1`, 59.3 nM; for `c1ccc2c(c1)nc(C[C@@H]1COCCN1)n2[C@H]1C[C@H]2CCC[C@@H](C1)N2[C@@H]1C[C@@H]2CCCC[C@@H](C2)C1`, 4.7 nM.
On the same count and under the same terms, the value for `O=C(O)CN1CCC[C@@H](Cc2nc3ccccc3n2[C@H]2C[C@H]3CCC[C@@H](C2)N3[C@@H]2C[C@@H]3CCCC[C@@H](C3)C2)C1` was 22.8 nM.
As to `O=C(O)CCN1CCC[C@@H](Cc2nc3ccccc3n2[C@H]2C[C@H]3CCC[C@@H](C2)N3[C@@H]2C[C@@H]3CCCC[C@@H](C3)C2)C1`, the EC50 was 82 nM.
On the same count and under the same terms, for `CONC(=N)/N=c1\[nH]c2ccccc2n1C1CCN(C2CCCCCCC2)CC1` the value was 70.8 nM; for `O=C(O)CN1CCC[C@@H]1c1nc2ccccc2n1[C@H]1C[C@H]2CCC[C@@H](C1)N2[C@@H]1C[C@@H]2CCCC[C@@H](C2)C1`, 39.6 nM.
The same measure, in the same setting: for `O=C(O)CN1CCCC[C@H]1c1nc2ccccc2n1[C@H]1C[C@H]2CCC[C@@H](C1)N2[C@@H]1C[C@@H]2CCCC[C@@H](C2)C1` the value was 121 nM.

The assay is the same for the next values; noted with them: ORL-1 receptor activity response, procedure of Example 22.
With `CS(=O)(=O)NCCN1CC[C@@H](Cc2nc3ccccc3n2[C@H]2C[C@H]3CCC[C@@H](C2)N3[C@@H]2C[C@@H]3CCCC[C@@H](C3)C2)C1`, the “GTPγS ORL-1 Emax [mean ± SEM]” value amounted to 43 ± 3%.
As to `NC(=O)CN1CCC[C@H](c2nc3ccccc3n2[C@H]2C[C@H]3CCC[C@@H](C2)N3[C@@H]2C[C@@H]3CCCC[C@@H](C3)C2)C1`, the “GTPγS ORL-1 Emax [mean ± SEM]” value is 18.7 ± 3.2%.
Same read-out and setting: the value for `O=C(O)CN1CC(c2nc3ccccc3n2[C@H]2C[C@H]3CCC[C@@H](C2)N3[C@@H]2C[C@@H]3CCCC[C@@H](C3)C2)C1` was 102 ± 1%.
In the case of `O=C(O)CCN1CC(c2nc3ccccc3n2[C@H]2C[C@H]3CCC[C@@H](C2)N3[C@@H]2C[C@@H]3CCCC[C@@H](C3)C2)C1`, the “GTPγS ORL-1 Emax [mean ± SEM]” value worked out at 101.7 ± 3.4%.
Still for that read-out and setting: the value for `O=C(O)CNc1nc2ccccc2n1C1C[C@H]2CCC[C@@H](C1)N2C1CCCCCCCCC1` (some centres unmarked) was 120.7 ± 6.7%; that for `NC(=O)CN1CCC[C@H]1c1nc2ccccc2n1[C@H]1C[C@H]2CCC[C@@H](C1)N2[C@@H]1C[C@@H]2CCCC[C@@H](C2)C1` was 35.3 ± 1.5%.
Same read-out and setting: the value for `OCc1nc2ccccc2n1C1C[C@H]2CCC[C@@H](C1)N2[C@H]1C[C@@H]2CCC[C@@H](C2)C1` (some centres unmarked) was 33.0 ± 1.3%.
The same measure, in the same setting: the value for `c1ccc2c(c1)nc(-c1ccno1)n2[C@H]1C[C@H]2CCC[C@@H](C1)N2[C@H]1C[C@@H]2CCC[C@@H](C2)C1` was 22.7 ± 1.2%; that for `O=C(O)CCN1CCC[C@H]1Cc1nc2ccccc2n1[C@H]1C[C@H]2CCC[C@@H](C1)N2[C@@H]1C[C@@H]2CCCC[C@@H](C2)C1` was 66 ± 2%.
As for `O=C(O)CN1CC[C@H](c2nc3ccccc3n2[C@H]2C[C@H]3CCC[C@@H](C2)N3[C@@H]2C[C@@H]3CCCC[C@@H](C3)C2)C1`, the “GTPγS ORL-1 Emax [mean ± SEM]” value came out at 85.3 ± 4.3%.
Same read-out and setting: the value for `O=C(O)CN1CCCC[C@@H]1c1nc2ccccc2n1[C@H]1C[C@H]2CCC[C@@H](C1)N2[C@@H]1C[C@@H]2CCCC[C@@H](C2)C1` was 38.5 ± 2.1%.
The same measure, in the same setting: for `CCN(CC)C(=O)CN1CCC[C@@H](Cc2nc3ccccc3n2[C@H]2C[C@H]3CCC[C@@H](C2)N3[C@@H]2C[C@@H]3CCCC[C@@H](C3)C2)C1` the value was 11 ± 1%; for `O=C(O)CN1CCCC[C@H]1Cc1nc2ccccc2n1[C@H]1C[C@H]2CCC[C@@H](C1)N2[C@@H]1C[C@@H]2CCCC[C@@H](C2)C1`, 40.3 ± 0.7%.
The same measure, in the same setting: for `CS(=O)(=O)NCCN1CCC[C@H]1Cc1nc2ccccc2n1[C@H]1C[C@H]2CCC[C@@H](C1)N2[C@@H]1C[C@@H]2CCCC[C@@H](C2)C1` the value was 58.3 ± 2.3%.
Turning to `c1ccc2c(c1)nc(C[C@@H]1COCCN1)n2[C@H]1C[C@H]2CCC[C@@H](C1)N2[C@@H]1C[C@@H]2CCCC[C@@H](C2)C1`, the “GTPγS ORL-1 Emax [mean ± SEM]” value was determined as 56.0 ± 2.1%.
Still for that read-out and setting: for `O=C(O)CN1CCC[C@@H](Cc2nc3ccccc3n2[C@H]2C[C@H]3CCC[C@@H](C2)N3[C@@H]2C[C@@H]3CCCC[C@@H](C3)C2)C1` the value was 15 ± 1%; for `O=C(O)CCN1CCC[C@@H](Cc2nc3ccccc3n2[C@H]2C[C@H]3CCC[C@@H](C2)N3[C@@H]2C[C@@H]3CCCC[C@@H](C3)C2)C1`, 22.8 ± 0.8%; for `CONC(=N)/N=c1\[nH]c2ccccc2n1C1CCN(C2CCCCCCC2)CC1`, 107.3 ± 4.2%.
In the case of `O=C(O)CN1CCC[C@@H]1c1nc2ccccc2n1[C@H]1C[C@H]2CCC[C@@H](C1)N2[C@@H]1C[C@@H]2CCCC[C@@H](C2)C1`, the “GTPγS ORL-1 Emax [mean ± SEM]” value came to 41 ± 1%.
Consider `O=C(O)CN1CCCC[C@H]1c1nc2ccccc2n1[C@H]1C[C@H]2CCC[C@@H](C1)N2[C@@H]1C[C@@H]2CCCC[C@@H](C2)C1`, for which the “GTPγS ORL-1 Emax [mean ± SEM]” value worked out at 40.3 ± 2.2%.
